Measurements: IntAct's records for PubMed 35512704

B1: RAC-alpha serine/threonine-protein kinase (Homo sapiens), P31749 (parent)
chain: MSDVAIVKEGWLHKRGEYIKTWRPRYFLLKNDGTFIGYKERPQDVDQREAPLNNFSVAQCQLMKTERPRPNTFIIRCLQWTTVIERTFHVETPEEREEWTTAIQTVADGLKKQEEEEMDFRSGSPSDNSGAEEMEVSLAKPKHRVTMNEFEYLKLLGKGTFGKVILVKEKATGRYYAMKILKKEVIVAKDEVAHTLTENRVLQNSRHPFLTALKYSFQTHDRLCFVMEYANGGELFFHLSRERVFSEDRARFYGAEIVSALDYLHSEKNVVYRDLKLENLMLDKDGHIKITDFGLCKEGIKDGATMKTFCGTPEYLAPEVLEDNDYGRAVDWWGLGVVMYEMMCGRLPFYNQDHEKLFELILMEEIRFPRTLGPEAKSLLSGLLKKDPKQRLGGGSEDAKEIMQHRFFAGIVWQHVYEKKLSPPFKPQVTSETDTRYFDEEFTAQMITITPPDQDDSMECVDSERRPHFPQFSYSASGTA
partner: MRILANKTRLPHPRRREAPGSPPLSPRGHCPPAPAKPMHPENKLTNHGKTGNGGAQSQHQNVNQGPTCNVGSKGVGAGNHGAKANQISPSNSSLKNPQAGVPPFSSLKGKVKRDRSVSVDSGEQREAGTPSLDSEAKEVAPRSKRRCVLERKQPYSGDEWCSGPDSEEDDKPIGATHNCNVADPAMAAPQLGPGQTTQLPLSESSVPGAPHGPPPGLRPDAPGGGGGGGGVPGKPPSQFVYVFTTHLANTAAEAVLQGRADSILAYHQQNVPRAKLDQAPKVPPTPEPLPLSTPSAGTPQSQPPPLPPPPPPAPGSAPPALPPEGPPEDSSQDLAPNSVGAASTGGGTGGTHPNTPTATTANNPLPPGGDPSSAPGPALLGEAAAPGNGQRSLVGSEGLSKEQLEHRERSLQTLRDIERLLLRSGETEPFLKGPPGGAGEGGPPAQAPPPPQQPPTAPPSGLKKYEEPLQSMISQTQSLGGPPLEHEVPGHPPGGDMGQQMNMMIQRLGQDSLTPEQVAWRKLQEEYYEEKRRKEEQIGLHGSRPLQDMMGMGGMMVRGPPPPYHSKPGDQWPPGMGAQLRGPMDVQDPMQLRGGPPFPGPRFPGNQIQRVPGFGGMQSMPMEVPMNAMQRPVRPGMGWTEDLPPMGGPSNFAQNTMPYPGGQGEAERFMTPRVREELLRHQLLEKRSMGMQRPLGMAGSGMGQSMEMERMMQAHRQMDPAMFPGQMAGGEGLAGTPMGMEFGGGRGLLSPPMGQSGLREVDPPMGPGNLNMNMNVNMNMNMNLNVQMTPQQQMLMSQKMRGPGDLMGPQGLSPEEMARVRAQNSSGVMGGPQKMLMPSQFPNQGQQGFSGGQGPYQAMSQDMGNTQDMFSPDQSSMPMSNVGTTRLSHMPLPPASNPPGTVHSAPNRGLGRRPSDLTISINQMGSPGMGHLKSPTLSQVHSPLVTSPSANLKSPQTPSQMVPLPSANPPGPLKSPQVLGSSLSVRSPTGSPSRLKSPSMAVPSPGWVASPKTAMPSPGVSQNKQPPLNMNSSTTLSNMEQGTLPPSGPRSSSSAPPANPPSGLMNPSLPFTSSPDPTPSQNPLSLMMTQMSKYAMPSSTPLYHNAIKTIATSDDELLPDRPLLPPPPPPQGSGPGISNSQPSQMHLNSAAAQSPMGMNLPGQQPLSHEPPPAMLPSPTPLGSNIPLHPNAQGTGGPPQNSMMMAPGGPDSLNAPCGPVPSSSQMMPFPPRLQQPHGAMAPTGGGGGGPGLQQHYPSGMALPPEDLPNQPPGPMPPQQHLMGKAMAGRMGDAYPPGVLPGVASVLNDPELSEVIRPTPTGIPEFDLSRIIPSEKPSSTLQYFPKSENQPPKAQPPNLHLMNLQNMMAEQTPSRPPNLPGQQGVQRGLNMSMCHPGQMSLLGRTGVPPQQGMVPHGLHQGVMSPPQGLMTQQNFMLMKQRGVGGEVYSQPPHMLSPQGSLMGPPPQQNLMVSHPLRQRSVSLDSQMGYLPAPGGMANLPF
B2: RAC-alpha serine/threonine-protein kinase (Homo sapiens), P31749 (parent)
chain: B1 chain
partner: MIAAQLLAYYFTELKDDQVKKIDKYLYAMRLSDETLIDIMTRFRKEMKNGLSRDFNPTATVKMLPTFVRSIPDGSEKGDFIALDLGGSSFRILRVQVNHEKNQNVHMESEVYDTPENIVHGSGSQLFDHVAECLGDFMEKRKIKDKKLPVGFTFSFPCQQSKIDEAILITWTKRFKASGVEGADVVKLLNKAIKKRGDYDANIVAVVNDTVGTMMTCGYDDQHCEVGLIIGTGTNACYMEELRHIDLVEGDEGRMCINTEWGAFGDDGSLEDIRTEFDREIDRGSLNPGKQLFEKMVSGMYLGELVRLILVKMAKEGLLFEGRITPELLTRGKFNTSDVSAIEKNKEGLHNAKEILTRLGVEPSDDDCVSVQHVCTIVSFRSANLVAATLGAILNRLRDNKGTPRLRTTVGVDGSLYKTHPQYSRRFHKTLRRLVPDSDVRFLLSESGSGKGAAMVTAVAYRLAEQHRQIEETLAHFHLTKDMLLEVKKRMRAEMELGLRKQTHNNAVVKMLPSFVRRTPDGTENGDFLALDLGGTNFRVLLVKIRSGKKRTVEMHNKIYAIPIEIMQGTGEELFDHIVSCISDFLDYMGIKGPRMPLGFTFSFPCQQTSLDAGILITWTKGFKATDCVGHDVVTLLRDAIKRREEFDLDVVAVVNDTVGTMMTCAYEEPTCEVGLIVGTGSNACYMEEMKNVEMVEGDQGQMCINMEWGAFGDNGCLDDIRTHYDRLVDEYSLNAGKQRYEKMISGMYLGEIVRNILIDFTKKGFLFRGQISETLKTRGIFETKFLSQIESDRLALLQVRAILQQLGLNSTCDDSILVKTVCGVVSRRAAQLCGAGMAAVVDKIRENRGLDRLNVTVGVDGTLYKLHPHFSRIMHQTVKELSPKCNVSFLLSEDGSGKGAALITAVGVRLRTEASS
B3: RAC-alpha serine/threonine-protein kinase (Homo sapiens), P31749 (parent)
chain: B1 chain
partner: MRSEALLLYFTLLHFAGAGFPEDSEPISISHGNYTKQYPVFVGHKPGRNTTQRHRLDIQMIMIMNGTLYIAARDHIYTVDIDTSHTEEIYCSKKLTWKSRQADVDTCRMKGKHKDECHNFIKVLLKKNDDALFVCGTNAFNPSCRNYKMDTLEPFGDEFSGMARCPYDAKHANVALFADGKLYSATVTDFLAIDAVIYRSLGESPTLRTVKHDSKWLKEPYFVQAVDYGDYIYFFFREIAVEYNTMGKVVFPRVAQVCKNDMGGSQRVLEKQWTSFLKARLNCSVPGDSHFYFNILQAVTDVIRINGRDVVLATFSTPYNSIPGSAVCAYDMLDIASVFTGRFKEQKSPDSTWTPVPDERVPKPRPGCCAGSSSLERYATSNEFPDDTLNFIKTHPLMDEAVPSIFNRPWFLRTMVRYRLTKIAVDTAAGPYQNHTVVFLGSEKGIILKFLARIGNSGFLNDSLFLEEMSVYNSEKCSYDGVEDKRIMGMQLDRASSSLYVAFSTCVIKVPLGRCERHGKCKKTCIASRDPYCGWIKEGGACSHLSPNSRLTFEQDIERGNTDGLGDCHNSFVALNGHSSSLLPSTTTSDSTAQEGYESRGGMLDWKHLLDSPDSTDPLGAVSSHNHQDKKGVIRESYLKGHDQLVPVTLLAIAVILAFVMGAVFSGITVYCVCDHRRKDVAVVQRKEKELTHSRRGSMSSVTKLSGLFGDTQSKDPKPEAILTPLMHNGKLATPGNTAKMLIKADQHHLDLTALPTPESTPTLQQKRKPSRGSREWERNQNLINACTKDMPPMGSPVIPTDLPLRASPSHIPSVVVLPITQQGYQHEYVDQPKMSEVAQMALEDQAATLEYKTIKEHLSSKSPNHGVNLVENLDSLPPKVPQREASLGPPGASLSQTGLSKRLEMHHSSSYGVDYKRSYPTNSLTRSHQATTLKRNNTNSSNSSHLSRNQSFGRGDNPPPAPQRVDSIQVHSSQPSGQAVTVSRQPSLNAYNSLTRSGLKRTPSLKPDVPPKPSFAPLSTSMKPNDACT
B4: RAC-alpha serine/threonine-protein kinase (Homo sapiens), P31749 (parent)
chain: B1 chain
partner: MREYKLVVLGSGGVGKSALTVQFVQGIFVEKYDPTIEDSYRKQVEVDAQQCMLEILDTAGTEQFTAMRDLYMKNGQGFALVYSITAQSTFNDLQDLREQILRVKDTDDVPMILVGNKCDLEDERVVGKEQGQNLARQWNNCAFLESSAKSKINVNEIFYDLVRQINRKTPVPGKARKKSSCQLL
B5: RAC-alpha serine/threonine-protein kinase (Homo sapiens), P31749 (parent)
chain: B1 chain
partner: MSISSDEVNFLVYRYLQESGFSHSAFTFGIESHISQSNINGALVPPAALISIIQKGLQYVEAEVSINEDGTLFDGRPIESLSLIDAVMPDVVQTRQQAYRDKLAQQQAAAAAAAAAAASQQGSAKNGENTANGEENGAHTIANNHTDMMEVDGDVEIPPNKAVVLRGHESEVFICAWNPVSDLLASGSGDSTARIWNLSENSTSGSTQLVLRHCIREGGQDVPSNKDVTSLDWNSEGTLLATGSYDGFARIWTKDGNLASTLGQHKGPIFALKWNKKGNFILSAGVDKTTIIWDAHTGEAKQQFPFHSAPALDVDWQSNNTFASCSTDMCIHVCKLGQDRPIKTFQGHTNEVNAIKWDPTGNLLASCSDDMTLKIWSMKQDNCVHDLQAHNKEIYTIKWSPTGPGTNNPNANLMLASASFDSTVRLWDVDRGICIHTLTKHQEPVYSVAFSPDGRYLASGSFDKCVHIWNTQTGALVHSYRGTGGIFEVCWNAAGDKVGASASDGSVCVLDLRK

Variants of: B1
Settings: with bcl9l_human BCL9L

Row | effect of a mutation on the interaction | Variant
1 | causing an interaction | E17K

Variants of: B2
Settings: with hxk1_human HK1, P19367

Row | effect of a mutation on the interaction | Variant
2 | with no effect | E17K

Variants of: B3
Settings: with sem6a_human SEMA6A

Row | effect of a mutation on the interaction | Variant
3 | with no effect | E17K

Variants of: B4
Settings: with rap1b_human RAP1B

Row | effect of a mutation on the interaction | Variant
4 | with no effect | E17K

Variants of: B5
Settings: with tbl1r_human TBL1XR1, Q9BZK7

Row | effect of a mutation on the interaction | Variant
5 | with no effect | E17K
